Measurements: patent publication US9833424B2, “Application of fluoxetine to treatment of depigmentation diseases” (SHANDONG RUNZE PHARMACEUTICALS CO., LTD., priority 2011, dated 2017)

Experiments:
B16F10 cells = assay: Cell migration (wound healing test) and morphology, B16F10 cells; settings: 48 hours, 0.1-10 μM
A375 cells = assay: Cell migration (wound healing test) and morphology, A375 cells; settings: 48 hours, 0.1-10 μM

## CNCCC(Oc1ccc(C(F)(F)F)cc1)c1ccccc1 (centres unmarked) [fluoxetine, N-methyl-γ-[4-(trifluoromethyl)phenoxy] phenylpropylamine]
B16F10 cells
  cell morphology: number of dendritic cells decreased and the cells became spindle shaped
A375 cells
  cell morphology: number of dendritic cells decreased and the cells became spindle shaped
